Laboratory results from patent US20210077478A1, “METHOD OF COUNTERING RESPIRATORY DEPRESSION VIA ACTIVATION OF NEURONAL HETEROMERIC NICOTINIC ACETYLCHOLINE RECEPTORS” (THE GOVERNORS OF THE UNIVERSITY OF ALBERTA, priority 2017, published 2021).

What was measured:
[1] = test system: newborn rats; assay: Fentanyl-induced respiratory depression in rat pups (postnatal day 3-4), plethysmography; type: in vivo; conditions: for reversal of fentanyl-induced VT depression in pups: nicotine or A85380
[2] = test system: adult rats; assay: Fentanyl-induced respiratory depression, whole-body plethysmography in adult rats; conditions: for fentanyl-induced decrease in oxygen saturation / fentanyl-induced fR decrease / respiratory depression / fentanyl-induced fR decrease: fentanyl 60 μg/kg over 20 min iv; for fentanyl-induced fR decrease / respiratory depression: nicotine 0.1-0.3, A85380 0.01-0.03, PNU282987 1-10 mg/kg iv (Example 12); for fentanyl-induced muscle rigidity / reversal of fentanyl-induced decrease in tidal volume (VT): adult rats, fentanyl iv infusion; for persistence of the reversal of fR decrease: fentanyl 60 μg/kg over 20 min, VMY-2-95 1 mg/kg iv, A85380 highest dose (0.03 mg/kg iv); for fentanyl-induced fR decrease: sazetidine-A 0.5-2 mg/kg or VMY-2-95 1 mg/kg iv; for median onset of effect (reversal of fR decrease): A85380 0.03 mg/kg, naloxone 0.3 mg/kg; for reversal of fentanyl-induced decrease of respiratory frequency: fentanyl 60 μg/kg over 20 min iv infusion, iv bolus after fentanyl: A85380 0.03, Rivanicline 3, NS9283 10, PNU282987 15 mg/kg; for unwanted behavioral changes (hyperalgesia, hyperventilation, abnormal body movements) / abnormal behavior: with fentanyl, preliminary studies
[3] = test system: adult rats; assay: Fentanyl-induced sedation (loss of righting reflex) in adult rats; type: in vivo, rat; conditions: fentanyl 20 μg/kg over 400s; A85380 0.06 mg/kg sc
[4] = test system: adult rats; assay: Remifentanil-induced apnea in adult rats; conditions: remifentanil 5 μg/kg co-administered with A85380 0.03-0.06 mg/kg iv
[5] = test system: adult rats; assay: Formalin test (licking and lifting) in adult rats; type: in vivo, rat; conditions: fentanyl 30 μg/kg over 10 min iv; lobeline 3 mg/kg 7 min post fentanyl
[6] = test system: adult rats; assay: Heart rate (pulse oximeter) in adult rats; conditions: fentanyl 30 μg/kg over 10 min iv, subsequent lobeline
[7] = fentanyl 35 μg/kg, nicotine 0.3-0.6, A85380 0.03-0.06 (dose-dependent), PNU282987 1-20 mg/kg sc
[8] = fentanyl 35 μg/kg sc, ~7 min later sazetidine-A 0.2-0.5 or VMY-2-95 1 mg/kg sc
[9] = DHβE 6 mg/kg with fentanyl, lobeline 10 mg/kg
[10] = fentanyl 35 μg/kg, lobeline 10 mg/kg sc
[11] = fentanyl 12 μg/kg over 1 min iv co-administered with lobeline 3 mg/kg over 1 min iv

With CN1CCCC1c1cccnc1 (stereo not shown) [nicotine] the “fentanyl-induced respiratory depression (decrease in fR, VT, VE)” value [1, 7] was “alleviated”, the “reversal of fentanyl-induced VT depression in pups” value [1] was “reversal of the VT depression” and the “fentanyl-induced decrease in oxygen saturation” value [2] was “alleviated”. For the same compound, the “fentanyl-induced fR decrease / respiratory depression” value [2] was “reversed the fentanyl-induced fR decrease” and the “duration of reversal of fR decrease” value ([2]; nicotine 0.1-0.3 mg/kg iv) was 5 to 10 min.

C(#Cc1cncc(OC[C@@H]2CCN2)c1)c1ccccc1 [VMY-2-95, 3-[(2S)-2-Azetidinylmethoxy]-5-(2-phenylethynyl)-pyridine] was tested, and the “fentanyl-induced VT decrease in pups” value ([1]; VMY-2-95) was “alleviated”, the “fentanyl-induced respiratory depression (decrease in fR, VT, VE)” value [1, 8] was “alleviated” and the fentanyl-induced muscle rigidity [2] was “did not reduce the muscle rigidity”. For the same compound, the “reversal of fentanyl-induced decrease in tidal volume (VT)” value [2] was “not a reversal of VT”, the “persistence of the reversal of fR decrease” value [2] was “persisted beyond the duration of the fentanyl infusion” and the “fentanyl-induced fR decrease” value [2] was “reversed the fentanyl-induced fR decrease”.

With OCCCCC#Cc1cncc(OC[C@@H]2CCN2)c1 [sazetidine-A, 6-[5-[(2S)-2-Azetidinylmethoxy]-3-pyridinyl]-5-hexyn-1-ol] the “fentanyl-induced respiratory depression (decrease in fR, VT, VE)” value [1, 8] was “alleviated” and the “fentanyl-induced fR decrease” value [2] was “did not change the course of fentanyl action”.

With CNC1(C)C2CCC(C2)C1(C)C (stereo not shown) the “effect of mecamylamine on fentanyl-induced respiratory depression” value ([1]; mecamylamine 6 mg/kg co-administered with fentanyl 35 μg/kg) was “did not affect the fentanyl-induced respiratory depression”.

With c1cncc(OC[C@@H]2CCN2)c1 [A85380, 3-(2(s)-azetidinylmethoxy) pyridine] the “fentanyl-induced respiratory depression (decrease in fR, VT, VE)” value [1, 7] was “alleviated”, the “reversal of fentanyl-induced VT depression in pups” value [1] was “reversal of the VT depression” and the “loss of righting reflex” value [3] was 16.2±1.3 min post fentanyl. The “incidence of remifentanil-induced apnea” value [4] was “markedly reduced the incidence of apnea”, the “remifentanil-induced depression of VE” value [4] was “reduced the depression of VE” and the “median onset of effect (reversal of fR decrease)” value [2] was 11.1 s. The “prevention of fentanyl-induced respiratory depression” value ([2]; A85380 0.06 mg/kg neck sc 2 min prior to fentanyl 20 μg/kg, 400s infusion) was “reduced the severity of fentanyl-induced respiratory depression”, the behavioral side effects ([2]; A85380 0.06 mg/kg sc) was “no behavioral side effects were observed” and the fentanyl-induced muscle rigidity [2] was “did not appear to reduce the muscle rigidity”. For the same compound, the “reversal of fentanyl-induced decrease in tidal volume (VT)” value [2] was “no reversal of VT”, the “fentanyl-induced decrease of body temperature (median)” value ([2]; end of 20-min infusion of 60 μg/kg fentanyl, A85380 treatment) was −1.2 °C and the “persistence of the reversal of fR decrease” value [2] was “persisted beyond the duration of the fentanyl infusion”. For the same compound, the “fentanyl-induced decrease in oxygen saturation” value [2] was “alleviated”, the “reversal of fentanyl-induced decrease of respiratory frequency” value [2] was “quickly and completely reversed” and the “fentanyl-induced fR decrease / respiratory depression” value [2] was “dose-dependently reversed”. The “unwanted behavioral changes (hyperalgesia, hyperventilation, abnormal body movements) / abnormal behavior” value [2] was “not observed”.

In the case of dihydro-beta-erythroidine, the “effect of DHβE co-application on alleviation of fentanyl-induced respiratory depression by agonists” value ([1]; DHβE 6 mg/kg with fentanyl, then sazetidine-A or VMY-2-95, nicotine or A85380) was “prevented the alleviation”.

With CNCC/C=C/c1cccnc1 [Rivanicline, (E)-N-Methyl-4-(3-pyridinyl)-3-butene-1-amine] the “reversal of fentanyl-induced decrease of respiratory frequency” value [2] was “quickly and partially reversed” and the “unwanted behavioral changes (hyperalgesia, hyperventilation, abnormal body movements) / abnormal behavior” value [2] was “not observed”.

With N#Cc1cccc(-c2nc(-c3cccnc3)no2)c1 [NS9283, 3-[3-(3-Pyridinyl)-1,2,4-oxadiazol-5yl]benzonitrile] the “reversal of fentanyl-induced decrease of respiratory frequency” value [2] was “partially and transiently reversed” and the “unwanted behavioral changes (hyperalgesia, hyperventilation, abnormal body movements) / abnormal behavior” value [2] was “not observed”.

For O=C(N[C@H]1CN2CCC1CC2)c1ccc(Cl)cc1 [PNU282987], the “fentanyl-induced respiratory depression (decrease in fR, VT, VE)” value [1, 7] was “no reversal”, the “fentanyl-induced decrease in oxygen saturation” value [2] was “but not by PNU282987” and the “reversal of fentanyl-induced decrease of respiratory frequency” value [2] was “had no effect”. For the same compound, the “fentanyl-induced fR decrease / respiratory depression” value [2] was “had no effect”.

In the case of C=CCN1CC[C@]23c4c5ccc(O)c4O[C@H]2C(=O)CC[C@@]3(O)[C@H]1C5, the “median onset of effect (reversal of fR decrease)” value [2] was 10.1 s.

In the case of CN1[C@@H](CC(=O)c2ccccc2)CCC[C@H]1C[C@H](O)c1ccccc1 [lobeline, 2-((2R,6S)-6-((S)-2-Hydroxy-2-phenylethyl)-1-methylpiperidin-2-yl)-1-phenylethanone], the “lobeline effects on fentanyl-induced depression of VT with DHβE” value [1, 9] was “but not VT”, the “lobeline effects on fentanyl-induced depression of fR with DHβE” value [1, 9] was “partially suppressed” and the “fentanyl-induced decrease in respiratory rate (fR)” value [1, 10] was “partially reversed”. The “fentanyl-induced decrease in tidal volume (VT)” value [1, 10] was “completely reversed”, the “lobeline effects on fentanyl-induced respiratory depression with mecamylamine” value ([1]; mecamylamine 6 mg/kg with fentanyl, lobeline 10 mg/kg) was “markedly suppressed, but not completely abolished” and the “fentanyl-induced analgesia, phase I” value [5] was “further increased fentanyl-induced analgesia”. For the same compound, the “fentanyl-induced analgesia, phase II” value [5] was “tended to increase the fentanyl-induced analgesia in the phase II, but the difference is not significant”, the fentanyl-induced bradycardia [6] was “markedly alleviated fentanyl-induced bradycardia” and the fentanyl-induced muscle rigidity [2] was “may have been mildly alleviated, but still persisted”. For the same compound, the fentanyl-induced apneas [2, 11] was “blocked apneas”, the “prevention of fentanyl-induced respiratory depression” value [2, 11] was “completely prevented” and the “fentanyl-induced respiratory depression in fR, VT, VE, and Sao2” value ([2]; fentanyl 30 μg/kg over 10 min iv, lobeline 3 mg/kg iv bolus ~7 min after fentanyl) was “completely reversed”.
